Measured values taken from patent US10675317B2, “Use of ginseng extract, ginsenoside and ginsenoside derivative in the preparation of medicine or health care product for treating cytomegalovirus infection disorders” (priority 2015, dated 2020).

System: HCMV infected mice
Assay: Spleen and thymus gland indexes of HCMV infected mice
Assay type: in vivo, Kunming mice
Conditions: for Spleen indexes / Thymus gland indexes: day 21
Protocol: The mice were injected with HCMV10^−3 (0.1 ml/mouse) through the caudal vein of mouse tails; 0.9% normal saline is injected to the normal control group, 0.1 ml/piece; and intragastric administration is started according to the determined dosage on the second day of infection, with 21 days of medication.
During the experiment. Animals were weighed and the thymus and spleen were weighed on the 21st day of administration, and their indices (thymus index, spleen index, weight of thymus and spleen organs per 10 g body weight (mg)) were measured.
Thymus glands and spleens are important immune organs, with the organ indexes reflecting the strength of immune functions of organisms to a certain degree. The thymus glands have the main functions of generating T-lymphocytes and secreting thymosin, and mainly take part in cellular immunity; and abundant lymphocytes and macrophages are contained in the spleens. The weight of the thymus glands and the spleens is related to functions thereof as well as the quantity of immune cells therein, and the height depends on the proliferation degree of the lymphocytes therein.

[1] = high-dosage group 0.3 mg/kg/d intragastric
[2] = low-dosage group 0.012 mg/kg/d intragastric
[3] = medium-dosage group 0.06 mg/kg/d intragastric

20(R)-ginsenoside Rg3 8-N-butyrate [Ginsenoside rg3 derivatives]
Spleen indexes and thymus gland indexes compared with the model group (in words): significantly different from those of the model group
Spleen indexes [1]: 0.062 ± 0.032
Thymus gland indexes [1]: 0.032 ± 0.017
Spleen indexes [2]: 0.059 ± 0.036
Thymus gland indexes [2]: 0.027 ± 0.006
Spleen indexes [3]: 0.061 ± 0.027
Thymus gland indexes [3]: 0.029 ± 0.008
